# Measurements as given in patent US8828401B2, “Cytotoxic peptides and antibody drug conjugates thereof” (Pfizer Inc., priority 2011, dated 2014).
# B1: hu75-vc0101: humanized anti-Notch antibody hu75 conjugated to mcValCitPABC-#54 (conjugate)
# heavy: EVQLVESGGGLVQPGGSLRLSCAASGYAFTDYWMTWVRQAPGKGLEWVAEISPNSGGTNFNEKFKGRFTISVDNAKNSLYLQMNSLRAEDTAVYYCARGEIRYNWFAYWGQGTLVTVSSASTKGPSVFPLAPSSKSTSGGTAALGCLVKDYFPEPVTVSWNSGALTSGVHTFPAVLQSSGLYSLSSVVTVPSSSLGTQTYICNVNHKPSNTKVDKKV[human IgG1 Fc left out]
# light: DIQMTQSPSSLSASVGDRVTITCKASQNVGNNIAWYQQKPGKAPKLLIYYASNRYTGVPSRFSGSGYGTDFTLTISSLQPEDFATYYCQRLYNSPFTFGGGTKVEIKRTVAAPSVFIFPPSDEQLKSGTASVVCLLNNFYPREAKVQWKVDNALQSGNSQESVTEQDSKDSTYSLSSTLTLSKADYEKHKVYACEVTHQGLSSPVTKSFNRGEC
# Tests used:
# [1] = test system: MDA-MB-468 breast xenografts; test: MDA-MB-468 breast xenografts with anti-Notch ADCs; assay type: in vivo, female SCID Hairless Outbred (SHO) mice
# Method: (§1) Humanized anti-Notch antibodies, hu28 and hu75, and rat-human chimeric anti-Notch antibodies, ch28 and ch75, were conjugated to various linker-payload combinations and tested in 37622A1 non-small cell lung cancer (NSCLC), HCC2429 lung cancer, MDA-MB-468 breast cancer and N87 gastric cancer xenograft models. For each model described below the first dose was given on Day 0. The tumors were measured at least once a week and their volume was calculated with the formula: tumor volume (mm^3)=0.5×(tumor width^2)(tumor length). The mean tumor volumes (±S.E.M.) for each treatment group were calculated having a maximum of 10 animals and a minimum of 6 animals to be included.
# Similar in vivo experiments were performed with the MDA-MB-468 breast cancer cell line as described above. […] To generate xenografts, female SCID Hairless Outbred (SHO) mice were orthotopically implanted with 10×10^6 MDA-MB-468 cells containing 50% Matrigel (BD Biosciences) in the mammary fat pad. When the tumors reached a volume of 250 to 450 mm^3, the tumors were staged to ensure uniformity of the tumor mass among various treatment groups. The MDA-MB-468 breast model was dosed intraveneously Q4dx4 with PBS vehicle, humanized anti-Notch ADCs and control huNeg-8.8 ADCs at the doses provided in Tables 14 and 15.
# [2] = test system: N87 gastric xenografts; test: N87 gastric xenografts with anti-Notch ADCs; assay type: in vivo, nude (Nu/Nu) female mice
# Method: as §1
# Similar in vivo experiments were performed with the N87 gastric cancer cell line as described above. […] When the tumors reached a volume of 250 to 450 mm^3, the tumors were staged to ensure uniformity of the tumor mass among various treatment groups. The N87 gastric model was dosed intraveneously Q4dx4 with PBS vehicle, humanized anti-Notch ADCs, control huNeg-8.8 ADCs and cisplatin at the doses provided in Tables 16 and 17.
molecule,measurement,setting,value
B1,tumor volume (mm^3 ± SEM),"[1]; Dose 3 mg/kg Q4dx4 iv, DAY 70",0 ± 0 mm^3
same,effect on growth of MDA-MB-468 breast xenografts (in words),"[1]; humanized ADCs, Q4dx4, doses of Tables 14 and 15",inhibited growth of MDA-MB-468 breast xenografts in a dose-dependent manner
same,tumor volume (mm^3 ± SEM),"[2]; Dose 1 mg/kg Q4dx4 iv, DAY 0",321 ± 9 mm^3
same,tumor volume (mm^3 ± SEM),"[2]; Dose 1 mg/kg Q4dx4 iv, DAY 4",392 ± 15 mm^3
same,tumor volume (mm^3 ± SEM),"[2]; Dose 1 mg/kg Q4dx4 iv, DAY 7",417 ± 25 mm^3
same,tumor volume (mm^3 ± SEM),"[2]; Dose 1 mg/kg Q4dx4 iv, DAY 11",331 ± 21 mm^3
same,tumor volume (mm^3 ± SEM),"[2]; Dose 1 mg/kg Q4dx4 iv, DAY 14",305 ± 17 mm^3
same,tumor volume (mm^3 ± SEM),"[2]; Dose 1 mg/kg Q4dx4 iv, DAY 18",267 ± 17 mm^3
same,tumor volume (mm^3 ± SEM),"[2]; Dose 1 mg/kg Q4dx4 iv, DAY 21",218 ± 23 mm^3
same,tumor volume (mm^3 ± SEM),"[2]; Dose 1 mg/kg Q4dx4 iv, DAY 26",185 ± 24 mm^3
same,tumor volume (mm^3 ± SEM),"[2]; Dose 1 mg/kg Q4dx4 iv, DAY 29",211 ± 37 mm^3
same,tumor volume (mm^3 ± SEM),"[2]; Dose 1 mg/kg Q4dx4 iv, DAY 33",251 ± 53 mm^3
same,tumor volume (mm^3 ± SEM),"[2]; Dose 1 mg/kg Q4dx4 iv, DAY 36",272 ± 59 mm^3
same,tumor volume (mm^3 ± SEM),"[2]; Dose 1 mg/kg Q4dx4 iv, DAY 39",304 ± 72 mm^3
same,tumor volume (mm^3 ± SEM),"[2]; Dose 1 mg/kg Q4dx4 iv, DAY 42",314 ± 73 mm^3
same,tumor volume (mm^3 ± SEM),"[2]; Dose 1 mg/kg Q4dx4 iv, DAY 47",334 ± 95 mm^3
same,tumor volume (mm^3 ± SEM),"[2]; Dose 1 mg/kg Q4dx4 iv, DAY 53",393 ± 115 mm^3
same,tumor volume (mm^3 ± SEM),"[2]; Dose 1 mg/kg Q4dx4 iv, DAY 62",463 ± 155 mm^3
same,tumor volume (mm^3 ± SEM),"[2]; Dose 1 mg/kg Q4dx4 iv, DAY 70",658 ± 241 mm^3
same,tumor volume (mm^3 ± SEM),"[2]; Dose 3 mg/kg Q4dx4 iv, DAY 0",324 ± 19 mm^3
same,tumor volume (mm^3 ± SEM),"[2]; Dose 3 mg/kg Q4dx4 iv, DAY 4",362 ± 35 mm^3
same,tumor volume (mm^3 ± SEM),"[2]; Dose 3 mg/kg Q4dx4 iv, DAY 7",303 ± 21 mm^3
same,tumor volume (mm^3 ± SEM),"[2]; Dose 3 mg/kg Q4dx4 iv, DAY 11",174 ± 14 mm^3
same,tumor volume (mm^3 ± SEM),"[2]; Dose 3 mg/kg Q4dx4 iv, DAY 14",172 ± 10 mm^3
same,tumor volume (mm^3 ± SEM),"[2]; Dose 3 mg/kg Q4dx4 iv, DAY 18",151 ± 10 mm^3
same,tumor volume (mm^3 ± SEM),"[2]; Dose 3 mg/kg Q4dx4 iv, DAY 21",130 ± 5 mm^3
same,tumor volume (mm^3 ± SEM),"[2]; Dose 3 mg/kg Q4dx4 iv, DAY 26",92 ± 14 mm^3
same,tumor volume (mm^3 ± SEM),"[2]; Dose 3 mg/kg Q4dx4 iv, DAY 29",104 ± 16 mm^3
same,tumor volume (mm^3 ± SEM),"[2]; Dose 3 mg/kg Q4dx4 iv, DAY 33",91 ± 18 mm^3
same,tumor volume (mm^3 ± SEM),"[2]; Dose 3 mg/kg Q4dx4 iv, DAY 36",86 ± 18 mm^3
same,tumor volume (mm^3 ± SEM),"[2]; Dose 3 mg/kg Q4dx4 iv, DAY 39",59 ± 16 mm^3
same,tumor volume (mm^3 ± SEM),"[2]; Dose 3 mg/kg Q4dx4 iv, DAY 42",81 ± 22 mm^3
same,tumor volume (mm^3 ± SEM),"[2]; Dose 3 mg/kg Q4dx4 iv, DAY 47",80 ± 25 mm^3
same,tumor volume (mm^3 ± SEM),"[2]; Dose 3 mg/kg Q4dx4 iv, DAY 53",86 ± 24 mm^3
same,tumor volume (mm^3 ± SEM),"[2]; Dose 3 mg/kg Q4dx4 iv, DAY 62",106 ± 35 mm^3
same,tumor volume (mm^3 ± SEM),"[2]; Dose 3 mg/kg Q4dx4 iv, DAY 70",148 ± 54 mm^3
same,tumor volume (mm^3 ± SEM),"[2]; Dose 5 mg/kg Q4dx4 iv, DAY 0",320 ± 11 mm^3
same,tumor volume (mm^3 ± SEM),"[2]; Dose 5 mg/kg Q4dx4 iv, DAY 4",315 ± 15 mm^3
same,tumor volume (mm^3 ± SEM),"[2]; Dose 5 mg/kg Q4dx4 iv, DAY 7",246 ± 12 mm^3
same,tumor volume (mm^3 ± SEM),"[2]; Dose 5 mg/kg Q4dx4 iv, DAY 11",156 ± 10 mm^3
same,tumor volume (mm^3 ± SEM),"[2]; Dose 5 mg/kg Q4dx4 iv, DAY 14",151 ± 7 mm^3
same,tumor volume (mm^3 ± SEM),"[2]; Dose 5 mg/kg Q4dx4 iv, DAY 18",128 ± 6 mm^3
same,tumor volume (mm^3 ± SEM),"[2]; Dose 5 mg/kg Q4dx4 iv, DAY 21",115 ± 7 mm^3
same,tumor volume (mm^3 ± SEM),"[2]; Dose 5 mg/kg Q4dx4 iv, DAY 26",82 ± 10 mm^3
same,tumor volume (mm^3 ± SEM),"[2]; Dose 5 mg/kg Q4dx4 iv, DAY 29",75 ± 12 mm^3
same,tumor volume (mm^3 ± SEM),"[2]; Dose 5 mg/kg Q4dx4 iv, DAY 33",73 ± 12 mm^3
same,tumor volume (mm^3 ± SEM),"[2]; Dose 5 mg/kg Q4dx4 iv, DAY 36",85 ± 9 mm^3
same,tumor volume (mm^3 ± SEM),"[2]; Dose 5 mg/kg Q4dx4 iv, DAY 39",72 ± 13 mm^3
same,tumor volume (mm^3 ± SEM),"[2]; Dose 5 mg/kg Q4dx4 iv, DAY 42",74 ± 13 mm^3
same,tumor volume (mm^3 ± SEM),"[2]; Dose 5 mg/kg Q4dx4 iv, DAY 53",69 ± 13 mm^3
same,tumor volume (mm^3 ± SEM),"[2]; Dose 5 mg/kg Q4dx4 iv, DAY 62",50 ± 15 mm^3
same,tumor volume (mm^3 ± SEM),"[2]; Dose 5 mg/kg Q4dx4 iv, DAY 70",76 ± 22 mm^3
same,effect on growth of N87 gastric xenografts (in words),"[2]; humanized ADCs, Q4dx4, doses of Tables 16 and 17",inhibited growth of N87 gastric xenografts in a dose-dependent manner
